The values below are quoted from earlier work in PMC8841740, “Fluorescent Ligand-Based Discovery of Small-Molecule Sulfonamide Agonists for GPR120” (Frontiers in Chemistry, 2022).

In the data set the test system is GPR120. To be noted: cited from earlier work.

Turning to `Cc1ccc(-c2ccc(F)cc2COc2ccc(CCC(=O)O)cc2)cc1` [TUG-891], the “pEC50 (Literature)” value is recorded as 7.02 ± 0.09^15.
